Source: PMC3961306, “Comparison of the Cancer Gene Targeting and Biochemical Selectivities of All Targeted Kinase Inhibitors Approved for Clinical Use” (PLoS ONE, 2014)

The chains behind the UniProt entries cited, without tags or fusion partners.
UniProt P41240, whole entry, stated change not applied: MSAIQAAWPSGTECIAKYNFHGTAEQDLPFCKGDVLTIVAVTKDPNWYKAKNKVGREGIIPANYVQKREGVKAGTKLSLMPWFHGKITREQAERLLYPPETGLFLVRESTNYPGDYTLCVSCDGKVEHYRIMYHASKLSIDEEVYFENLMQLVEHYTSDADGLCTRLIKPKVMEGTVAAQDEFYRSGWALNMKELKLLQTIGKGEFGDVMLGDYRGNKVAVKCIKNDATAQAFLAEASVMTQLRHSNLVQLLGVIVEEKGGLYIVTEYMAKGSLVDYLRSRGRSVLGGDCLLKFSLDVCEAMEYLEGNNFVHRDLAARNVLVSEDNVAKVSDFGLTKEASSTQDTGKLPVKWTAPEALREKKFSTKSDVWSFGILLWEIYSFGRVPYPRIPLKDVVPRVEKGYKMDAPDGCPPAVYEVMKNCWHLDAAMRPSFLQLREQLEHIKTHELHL
UniProt P68400, whole entry, stated change not applied: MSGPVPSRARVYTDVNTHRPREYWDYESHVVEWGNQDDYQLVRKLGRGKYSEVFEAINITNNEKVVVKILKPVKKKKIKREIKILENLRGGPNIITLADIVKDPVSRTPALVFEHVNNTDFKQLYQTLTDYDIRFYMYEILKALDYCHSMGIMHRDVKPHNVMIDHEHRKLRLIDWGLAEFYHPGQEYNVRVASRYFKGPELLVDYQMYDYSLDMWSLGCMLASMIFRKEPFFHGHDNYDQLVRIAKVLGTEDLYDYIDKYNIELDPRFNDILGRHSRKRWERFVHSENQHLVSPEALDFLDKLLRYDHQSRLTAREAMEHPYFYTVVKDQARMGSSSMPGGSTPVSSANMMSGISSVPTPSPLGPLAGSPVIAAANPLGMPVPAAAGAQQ
UniProt Q9Y2H1, whole entry, stated change not applied: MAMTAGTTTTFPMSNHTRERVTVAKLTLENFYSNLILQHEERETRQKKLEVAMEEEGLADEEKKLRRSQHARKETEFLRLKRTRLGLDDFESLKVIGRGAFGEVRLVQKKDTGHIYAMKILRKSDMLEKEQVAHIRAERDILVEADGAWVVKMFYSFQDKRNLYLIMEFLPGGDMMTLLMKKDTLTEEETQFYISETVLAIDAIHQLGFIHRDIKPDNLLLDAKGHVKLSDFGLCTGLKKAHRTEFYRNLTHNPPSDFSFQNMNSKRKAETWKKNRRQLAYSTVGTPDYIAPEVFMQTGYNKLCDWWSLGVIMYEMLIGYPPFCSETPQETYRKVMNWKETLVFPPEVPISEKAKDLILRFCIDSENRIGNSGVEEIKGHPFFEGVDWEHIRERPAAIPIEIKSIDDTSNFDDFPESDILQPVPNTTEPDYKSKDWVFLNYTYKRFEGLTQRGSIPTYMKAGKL
UniProt P28482, whole entry, stated change not applied: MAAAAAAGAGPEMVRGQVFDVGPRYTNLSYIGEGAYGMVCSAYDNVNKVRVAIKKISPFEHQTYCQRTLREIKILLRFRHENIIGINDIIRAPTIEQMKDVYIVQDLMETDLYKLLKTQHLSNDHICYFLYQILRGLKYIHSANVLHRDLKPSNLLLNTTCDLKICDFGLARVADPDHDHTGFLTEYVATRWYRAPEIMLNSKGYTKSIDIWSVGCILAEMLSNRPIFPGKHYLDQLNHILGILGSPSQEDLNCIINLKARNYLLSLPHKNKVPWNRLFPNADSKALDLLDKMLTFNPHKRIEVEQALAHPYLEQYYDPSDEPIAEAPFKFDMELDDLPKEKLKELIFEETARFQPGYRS
UniProt Q13233, whole entry, stated change not applied: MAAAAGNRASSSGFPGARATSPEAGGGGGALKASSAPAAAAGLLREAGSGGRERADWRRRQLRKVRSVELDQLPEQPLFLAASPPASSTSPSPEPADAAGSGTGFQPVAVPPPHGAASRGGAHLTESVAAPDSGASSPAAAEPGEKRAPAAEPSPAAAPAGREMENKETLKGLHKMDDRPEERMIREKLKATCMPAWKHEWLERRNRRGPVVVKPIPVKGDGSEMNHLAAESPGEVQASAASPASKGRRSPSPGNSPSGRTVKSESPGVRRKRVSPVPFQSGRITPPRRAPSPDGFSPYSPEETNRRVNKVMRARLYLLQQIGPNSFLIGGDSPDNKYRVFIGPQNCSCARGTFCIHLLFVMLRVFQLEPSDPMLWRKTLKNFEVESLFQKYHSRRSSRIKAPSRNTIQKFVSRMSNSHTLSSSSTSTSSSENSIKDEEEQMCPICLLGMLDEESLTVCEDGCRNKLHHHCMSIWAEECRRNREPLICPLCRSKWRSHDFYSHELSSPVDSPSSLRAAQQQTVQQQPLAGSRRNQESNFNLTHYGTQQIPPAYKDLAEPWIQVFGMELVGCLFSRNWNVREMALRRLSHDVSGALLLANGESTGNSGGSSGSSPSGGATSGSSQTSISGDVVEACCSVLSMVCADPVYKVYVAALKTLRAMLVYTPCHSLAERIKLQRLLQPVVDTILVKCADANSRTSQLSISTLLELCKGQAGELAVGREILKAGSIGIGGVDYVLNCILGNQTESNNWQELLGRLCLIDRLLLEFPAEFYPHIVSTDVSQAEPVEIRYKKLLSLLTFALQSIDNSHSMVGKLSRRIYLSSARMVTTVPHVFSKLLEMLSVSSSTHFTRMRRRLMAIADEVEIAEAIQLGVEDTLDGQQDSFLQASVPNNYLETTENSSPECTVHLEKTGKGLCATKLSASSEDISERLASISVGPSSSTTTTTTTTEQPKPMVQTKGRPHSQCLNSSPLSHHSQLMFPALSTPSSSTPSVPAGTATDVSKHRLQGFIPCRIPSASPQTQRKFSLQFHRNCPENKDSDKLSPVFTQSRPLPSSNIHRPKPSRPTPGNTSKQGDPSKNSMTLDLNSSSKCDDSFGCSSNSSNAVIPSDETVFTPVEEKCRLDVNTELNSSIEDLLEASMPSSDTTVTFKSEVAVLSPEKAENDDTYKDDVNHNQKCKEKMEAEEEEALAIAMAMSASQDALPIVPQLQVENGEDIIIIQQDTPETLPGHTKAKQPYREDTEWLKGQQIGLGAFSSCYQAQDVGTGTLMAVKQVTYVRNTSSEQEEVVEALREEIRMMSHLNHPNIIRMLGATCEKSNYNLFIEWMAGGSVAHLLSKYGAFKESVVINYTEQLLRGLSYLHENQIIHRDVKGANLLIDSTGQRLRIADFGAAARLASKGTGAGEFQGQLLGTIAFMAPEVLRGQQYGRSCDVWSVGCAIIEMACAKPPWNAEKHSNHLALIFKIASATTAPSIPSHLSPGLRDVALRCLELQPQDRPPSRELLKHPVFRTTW

Legend:
Assay in all cases: Kinase profiling in a biochemical assay panel (mobility shift assays and ELISA), %-inhibition at 1 μM; selectivity entropy
[1] = target: T1, panel of more than 300 wild-type and mutant kinases (313 kinase panel) (Homo sapiens, UniProt Q13043)
T1 sequence (Q13043 1-487): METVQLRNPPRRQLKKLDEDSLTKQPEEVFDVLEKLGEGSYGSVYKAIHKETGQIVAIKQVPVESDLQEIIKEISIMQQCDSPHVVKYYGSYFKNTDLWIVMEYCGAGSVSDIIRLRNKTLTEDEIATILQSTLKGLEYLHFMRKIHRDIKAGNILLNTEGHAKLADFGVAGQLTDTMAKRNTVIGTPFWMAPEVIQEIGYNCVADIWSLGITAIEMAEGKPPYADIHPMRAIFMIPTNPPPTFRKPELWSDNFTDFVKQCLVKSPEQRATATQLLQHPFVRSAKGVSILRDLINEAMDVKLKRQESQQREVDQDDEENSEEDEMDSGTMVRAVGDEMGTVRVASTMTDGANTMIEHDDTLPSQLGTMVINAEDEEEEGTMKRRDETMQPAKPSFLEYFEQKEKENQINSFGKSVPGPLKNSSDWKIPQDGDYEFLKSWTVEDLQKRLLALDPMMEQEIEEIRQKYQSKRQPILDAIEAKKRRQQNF

[2] = target: T2, panel of more than 300 wild-type and mutant kinases (313 kinase panel) (Homo sapiens, UniProt Q8IY84)
T2 sequence (Q8IY84 1-436): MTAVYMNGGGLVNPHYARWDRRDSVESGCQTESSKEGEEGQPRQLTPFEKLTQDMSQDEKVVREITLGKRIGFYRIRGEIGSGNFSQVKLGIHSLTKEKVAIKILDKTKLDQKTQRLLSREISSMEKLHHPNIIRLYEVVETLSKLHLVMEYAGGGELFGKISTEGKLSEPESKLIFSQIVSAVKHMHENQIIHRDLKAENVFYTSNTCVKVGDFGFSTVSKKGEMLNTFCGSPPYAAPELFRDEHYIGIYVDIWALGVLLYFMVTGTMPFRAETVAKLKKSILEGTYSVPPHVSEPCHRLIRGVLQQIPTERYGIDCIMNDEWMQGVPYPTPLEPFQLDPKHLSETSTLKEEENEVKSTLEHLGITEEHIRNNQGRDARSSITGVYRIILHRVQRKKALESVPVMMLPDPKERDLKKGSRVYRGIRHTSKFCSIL

[3] = target: panel of more than 300 wild-type and mutant kinases (313 kinase panel) (Homo sapiens, UniProt P41240)
[4] = target: panel of more than 300 wild-type and mutant kinases (313 kinase panel) (Homo sapiens, UniProt P68400)
[5] = target: T3, panel of more than 300 wild-type and mutant kinases (313 kinase panel) (Homo sapiens, UniProt Q9HC98)
T3 sequence (Q9HC98 1-313): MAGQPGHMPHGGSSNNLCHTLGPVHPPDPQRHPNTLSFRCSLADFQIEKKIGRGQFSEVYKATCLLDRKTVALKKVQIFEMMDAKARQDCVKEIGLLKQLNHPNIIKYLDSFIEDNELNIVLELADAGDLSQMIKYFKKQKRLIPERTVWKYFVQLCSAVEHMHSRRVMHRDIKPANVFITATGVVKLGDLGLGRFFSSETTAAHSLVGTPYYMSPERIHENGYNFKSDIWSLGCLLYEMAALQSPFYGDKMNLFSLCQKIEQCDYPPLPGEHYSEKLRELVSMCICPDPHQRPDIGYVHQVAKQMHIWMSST

[6] = target: panel of more than 300 wild-type and mutant kinases (313 kinase panel) (Homo sapiens, UniProt Q9Y2H1)
[7] = target: panel of more than 300 wild-type and mutant kinases (313 kinase panel) (Homo sapiens, UniProt P28482)
[8] = target: panel of more than 300 wild-type and mutant kinases (313 kinase panel) (Homo sapiens, UniProt Q02750)
[9] = target: panel of more than 300 wild-type and mutant kinases (313 kinase panel) (Homo sapiens, UniProt Q13233)
[10] = target: T4, panel of more than 300 wild-type and mutant kinases (313 kinase panel) (Homo sapiens, UniProt P51813)
T4 sequence (P51813 1-675): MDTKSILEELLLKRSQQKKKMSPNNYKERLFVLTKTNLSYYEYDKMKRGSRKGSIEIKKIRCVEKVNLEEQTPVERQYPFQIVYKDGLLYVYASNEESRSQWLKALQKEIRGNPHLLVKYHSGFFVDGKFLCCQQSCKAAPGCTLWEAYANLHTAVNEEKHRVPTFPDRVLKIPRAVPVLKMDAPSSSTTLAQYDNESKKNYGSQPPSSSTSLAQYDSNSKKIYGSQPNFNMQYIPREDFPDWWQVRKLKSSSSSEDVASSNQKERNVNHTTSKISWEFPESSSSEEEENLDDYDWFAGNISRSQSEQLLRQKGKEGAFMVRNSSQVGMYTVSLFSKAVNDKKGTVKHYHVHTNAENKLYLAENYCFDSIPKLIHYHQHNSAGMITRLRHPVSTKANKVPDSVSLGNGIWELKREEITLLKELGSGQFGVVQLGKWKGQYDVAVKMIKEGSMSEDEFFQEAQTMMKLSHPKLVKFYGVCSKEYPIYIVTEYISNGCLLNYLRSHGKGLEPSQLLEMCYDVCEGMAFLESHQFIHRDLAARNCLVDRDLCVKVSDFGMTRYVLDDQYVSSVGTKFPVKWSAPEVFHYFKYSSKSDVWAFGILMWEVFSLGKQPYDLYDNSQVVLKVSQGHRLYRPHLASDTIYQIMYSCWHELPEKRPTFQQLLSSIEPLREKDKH

Structure (SMILES) | %-inhibition of MST1 ([1]; kinase MST1, 1 μM) [%] | %-inhibition of MGC42105 ([2]; kinase MGC42105, 1 μM) [%] | %-inhibition of CSK ([3]; kinase CSK, compound at 1 μM) [%] | %-inhibition, CK2α1/β ([4]; kinase CK2α1/β, 1 μM compound) [%] | %-inhibition of NEK6 ([5]; kinase NEK6, 1 μM) [%] | %-inhibition of NDR2 ([6]; kinase NDR2, 1 μM) [%] | %-inhibition of Erk2 ([7]; kinase Erk2, compound at 1 μM) [%] | %-inhibition of MAP2K1 ([8]; kinase MAP2K1, compound at 1 μM) [%] | %-inhibition of MAP3K1 ([9]; kinase MAP3K1, compound at 1 μM) [%] | %-inhibition, BMX ([10]; kinase BMX, 1 μM compound) [%] | %-inhibition of MST1 ([1]; 1 µM) [%] | %-inhibition of MGC42105 ([2]; 1 µM) [%] | %-inhibition of CSK ([3]; 1 µM) [%] | %-inhibition, CK2α1/β ([4]; 1 µM) [%] | %-inhibition of NEK6 ([5]; 1 µM) [%] | %-inhibition of NDR2 ([6]; 1 µM) [%] | %-inhibition of Erk2 ([7]; 1 µM) [%] | %-inhibition of MAP2K1 ([8]; 1 µM) [%] | %-inhibition of MAP3K1 ([9]; 1 µM) [%] | %-inhibition, BMX ([10]; 1 µM) [%]
CNC(=O)c1ccccc1Sc1ccc2c(/C=C/c3ccccn3)n[nH]c2c1 [axitinib] | 77 | -13 | 15 | -6 | -5.49 | -2 | -7.44 | 5.28 | -2.64 | 16 | – | – | – | – | – | – | – | – | – | –
COc1cc2ncnc(Nc3ccc(F)c(Cl)c3)c2cc1OCCCN1CCOCC1 [gefitinib] | – | – | – | – | – | – | – | – | – | – | -3 | 0.704 | 13 | -1.13 | 2.37 | -5.66 | -6 | 17 | 10 | 10
C[C@@H]1CCN(C(=O)CC#N)C[C@@H]1N(C)c1ncnc2[nH]ccc12 [tofacitinib] | – | – | – | – | – | – | – | – | – | – | 3.72 | -9 | 1 | -6.65 | -1.14 | 24 | -6 | 3.52 | -3.35 | 3
